Experimental findings from ChEMBL document CHEMBL1146899, “Redefining the structure-activity relationships of 2,6-methano-3-benzazocines. 4. Opioid receptor binding properties of 8-[N-(4'-phenyl)-phenethyl)carboxamido] analogues of cyclazocine and ethylketocycalzocine” (J Med Chem, 2006) are described below.

Amino acid sequences for entries named in this document (tags omitted). A change or cut given only in a name is not applied to a line headed by its entry.
UniProt P41145: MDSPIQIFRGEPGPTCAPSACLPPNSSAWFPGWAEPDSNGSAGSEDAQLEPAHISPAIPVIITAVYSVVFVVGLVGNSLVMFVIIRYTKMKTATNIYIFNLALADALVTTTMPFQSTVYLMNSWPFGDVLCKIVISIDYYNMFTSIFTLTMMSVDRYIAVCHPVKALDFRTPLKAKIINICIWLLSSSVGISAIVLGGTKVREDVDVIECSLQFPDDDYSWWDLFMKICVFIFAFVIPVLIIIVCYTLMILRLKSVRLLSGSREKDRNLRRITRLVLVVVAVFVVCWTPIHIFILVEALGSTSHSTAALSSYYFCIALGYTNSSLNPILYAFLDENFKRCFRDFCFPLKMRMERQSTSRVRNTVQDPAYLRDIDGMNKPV
UniProt P35372, whole entry, looked up: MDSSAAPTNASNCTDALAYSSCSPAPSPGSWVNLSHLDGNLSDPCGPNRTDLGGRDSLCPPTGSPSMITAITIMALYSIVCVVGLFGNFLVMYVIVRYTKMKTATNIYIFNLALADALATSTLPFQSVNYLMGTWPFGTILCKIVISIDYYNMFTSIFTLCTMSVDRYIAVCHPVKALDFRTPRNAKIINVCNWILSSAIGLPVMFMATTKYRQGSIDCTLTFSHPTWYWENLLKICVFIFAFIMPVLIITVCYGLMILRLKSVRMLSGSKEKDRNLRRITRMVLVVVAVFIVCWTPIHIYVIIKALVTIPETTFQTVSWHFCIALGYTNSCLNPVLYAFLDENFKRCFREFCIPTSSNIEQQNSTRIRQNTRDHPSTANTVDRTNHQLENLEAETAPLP

Assay [1] deals with T1, Kappa-type opioid receptor (Homo sapiens, UniProt P41145). In words: Agonist activity at human kappa opioid receptor expressed in CHO cells assessed as stimulation of [35S]GTP-gamma-S binding.
Assay [2] has as its target Mu-type opioid receptor (Homo sapiens, UniProt P35372). In words: Agonist activity at human mu opioid receptor expressed in CHO cells assessed as stimulation of [35S]GTP-gamma-S binding. (In general: GTPγS resists hydrolysis and so accumulates on activated G proteins.)
Assay [3] concerns the target T1, Kappa-type opioid receptor. In words: Antagonist activity against human kappa opioid receptor expressed in CHO cells assessed as inhibition of U50488-stimulated [35S]GTP-gamma-S binding.

SMILES strings stand for the structures. Active and inactive are the calls of the source. The rule behind the calls is not given here.

As for `CN(C(=O)Cc1ccc(Cl)c(Cl)c1)C1CCCCC1N1CCCC1` (stereo not given), in assay [1], the result was inactive and the Emax (in general, the greatest response seen or fitted, relative to the assay's reference) is 77%. Turning to `C[C@@H](NC(=O)[C@@H](N)Cc1ccc(O)cc1)C(=O)NCC(=O)N(C)[C@@H](Cc1ccccc1)C(=O)NCCO`, in assay [2], the result was inactive. For the molecule `C[C@H]1C2Cc3ccc(C(N)=O)cc3[C@@]1(C)CCN2CC1CC1`, in assay [3], the result was inactive and the Emax was 87%.
